The chains behind the UniProt entries cited, without tags or fusion partners.
UniProt P42336, whole entry: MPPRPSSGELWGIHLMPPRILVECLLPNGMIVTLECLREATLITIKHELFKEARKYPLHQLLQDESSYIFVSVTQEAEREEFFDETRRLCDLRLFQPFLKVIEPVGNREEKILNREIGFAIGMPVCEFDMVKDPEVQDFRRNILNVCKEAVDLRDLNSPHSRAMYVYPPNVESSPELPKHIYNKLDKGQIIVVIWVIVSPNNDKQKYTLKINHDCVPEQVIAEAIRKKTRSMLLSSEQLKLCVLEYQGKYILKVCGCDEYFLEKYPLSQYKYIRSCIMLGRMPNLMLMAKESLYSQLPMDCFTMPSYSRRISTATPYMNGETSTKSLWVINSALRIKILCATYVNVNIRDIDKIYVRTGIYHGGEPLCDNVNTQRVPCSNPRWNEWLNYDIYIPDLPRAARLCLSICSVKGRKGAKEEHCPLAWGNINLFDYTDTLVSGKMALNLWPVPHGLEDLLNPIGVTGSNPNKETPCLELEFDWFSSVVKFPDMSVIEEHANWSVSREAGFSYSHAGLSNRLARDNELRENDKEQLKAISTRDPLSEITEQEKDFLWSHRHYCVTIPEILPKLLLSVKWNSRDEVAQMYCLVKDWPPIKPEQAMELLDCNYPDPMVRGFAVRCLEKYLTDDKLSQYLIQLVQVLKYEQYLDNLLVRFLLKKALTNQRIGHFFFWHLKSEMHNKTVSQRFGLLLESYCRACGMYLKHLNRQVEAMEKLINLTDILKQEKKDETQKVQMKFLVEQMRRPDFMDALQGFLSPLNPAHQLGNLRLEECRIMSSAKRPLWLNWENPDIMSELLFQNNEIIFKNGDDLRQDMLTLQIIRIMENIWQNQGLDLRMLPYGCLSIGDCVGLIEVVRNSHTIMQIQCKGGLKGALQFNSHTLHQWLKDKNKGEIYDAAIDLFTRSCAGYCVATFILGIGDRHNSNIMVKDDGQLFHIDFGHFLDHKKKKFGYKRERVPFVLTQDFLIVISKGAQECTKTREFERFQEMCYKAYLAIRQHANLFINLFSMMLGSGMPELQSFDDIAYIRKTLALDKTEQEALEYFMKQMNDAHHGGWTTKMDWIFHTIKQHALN
UniProt P27986, whole entry partner: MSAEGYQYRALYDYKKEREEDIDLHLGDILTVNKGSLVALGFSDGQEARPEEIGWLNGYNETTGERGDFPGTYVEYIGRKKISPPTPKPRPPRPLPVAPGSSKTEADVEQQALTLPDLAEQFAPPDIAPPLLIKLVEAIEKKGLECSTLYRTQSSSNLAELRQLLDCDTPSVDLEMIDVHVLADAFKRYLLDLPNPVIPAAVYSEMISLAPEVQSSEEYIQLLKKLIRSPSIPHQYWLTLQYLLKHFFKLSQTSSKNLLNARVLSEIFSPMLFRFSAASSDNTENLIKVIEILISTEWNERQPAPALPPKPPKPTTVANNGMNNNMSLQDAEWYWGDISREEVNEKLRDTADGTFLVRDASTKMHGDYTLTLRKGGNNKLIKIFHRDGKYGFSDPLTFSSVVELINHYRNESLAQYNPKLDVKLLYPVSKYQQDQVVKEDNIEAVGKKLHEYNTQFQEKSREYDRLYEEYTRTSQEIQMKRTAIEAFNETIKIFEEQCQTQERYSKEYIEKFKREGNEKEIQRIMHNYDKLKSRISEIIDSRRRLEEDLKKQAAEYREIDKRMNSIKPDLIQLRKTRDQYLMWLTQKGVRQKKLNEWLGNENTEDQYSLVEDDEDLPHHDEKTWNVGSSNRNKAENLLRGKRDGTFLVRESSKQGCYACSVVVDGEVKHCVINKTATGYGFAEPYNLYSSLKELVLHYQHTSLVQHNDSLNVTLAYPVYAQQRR

According to US20100015141A1, “4-PHENOXY-6-ARYL-1H-PYRAZOLO[3,4-D]PYRIMIDINE AND N-ARYL-6-ARYL-1H-PYRAZOLO[3,4-D]PYRIMIDIN-4-AMINE COMPOUNDS, THEIR USE AS MTOR KINASE AND PI3 KINASE INHIBITORS, AND THEIR SYNTHESES” (Wyeth, priority 2008, published 2010):

Legend:
PI3K-α = PI3K-α (Homo sapiens, UniProt P42336); experiment: PI3K-alpha fluorescence polarization assay; format: biochemical; conditions: read-out: PI3K-α avg IC50; 20 μM PIP2, 25 μM ATP; tested form: trifluoroacetate (TFA salt)
mTOR = mTOR (Homo sapiens, UniProt P42345); experiment: mTOR enzyme assay (DELFIA, His6-S6K phosphorylation); format: biochemical; conditions: read-out: mTOR avg IC50; 100 μM ATP, 1.25 μM His6-S6K; tested form: trifluoroacetate (TFA salt)

## Cn1ncc2c(Nc3ccc(C(N)=O)cc3)nc(Nc3ccc(NC(=O)Nc4cccnc4)cc3)nc21
PI3K-α
  IC50: 1 nM
mTOR
  IC50: 13 nM
